PubChem BioAssay AID1159606 (Sanford-Burnham Center for Chemical Genomics, 2016)
The list shows a part of the results, in another mix than the full data. The source made the active and inactive calls. Rule as the data show it: active = inhibition above about 50%; inactive = the rest.

test: inhibitors of TWEAK-Fn14 signaling, primary screen, luciferase reporter cells, uHTS (AID 1159606); settings: TWEAK-stimulated Fn14 reporter cells, luciferase luminescence, 8 h; at 10 µM; stronger effect = higher value

SMILES	inhibition
CCC(=O)N(c1ccccc1)C1(COC)CCN(CCn2nnn(CC)c2=O)CC1	inactive: 10.9%
CCC(=O)N(c1ccccc1)C1(COC)CCN(CCc2cccs2)CC1	inactive: 2.77%
